Data published in patent US11519922B2, “Methods for identifying risk of chemotherapy-induced cardiotoxicity and targeted medical intervention” (Detroit R&D, Inc., priority 2018, dated 2022).

The chains behind the UniProt entries cited, without tags or fusion partners.
UniProt P34913, whole entry, species assumed: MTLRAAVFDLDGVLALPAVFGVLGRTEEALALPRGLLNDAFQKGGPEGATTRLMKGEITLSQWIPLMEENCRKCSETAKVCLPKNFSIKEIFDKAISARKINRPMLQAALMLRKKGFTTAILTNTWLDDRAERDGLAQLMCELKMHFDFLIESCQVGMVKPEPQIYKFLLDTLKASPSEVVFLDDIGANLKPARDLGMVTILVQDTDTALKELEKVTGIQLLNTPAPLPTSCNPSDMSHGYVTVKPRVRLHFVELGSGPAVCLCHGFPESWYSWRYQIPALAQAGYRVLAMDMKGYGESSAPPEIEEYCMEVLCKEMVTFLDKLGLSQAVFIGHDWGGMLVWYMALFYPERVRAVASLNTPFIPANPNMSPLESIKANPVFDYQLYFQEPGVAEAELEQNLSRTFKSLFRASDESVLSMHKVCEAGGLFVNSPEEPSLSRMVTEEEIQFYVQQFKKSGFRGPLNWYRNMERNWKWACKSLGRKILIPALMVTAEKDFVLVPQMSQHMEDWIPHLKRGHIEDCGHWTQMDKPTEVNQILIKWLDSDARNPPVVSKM

Experiments:
recombinant sEH = recombinant sEH (Homo sapiens, UniProt P34913); assay: Inhibition of EET-dependent sEH activity, reconstituted system; format: biochemical
[1] = target: T1, sEH in human kidney cells (ACHN) (Homo sapiens, UniProt P34913); assay: Inhibition of EET-dependent sEH activity in kidney cells; format: cell-based
T1 construct: recombinant sEH and human kidney cells (ACHN); endogenous in cells; host or cells: ACHN human kidney cells

Substance: 12[[(tricycle[3.3.1.13,7]dec-1-ylamino)carbonyl]amino]-dodecanoic acid [AUDA]
- EET-dependent sEH activity (recombinant sEH): inhibited
- inhibitor of the sEH activity (overall statement) (recombinant sEH): potent inhibitors
- EET-dependent sEH activity [1]: inhibited
